Here are results for seven compounds from patent publication EP4837906A1, “NOVEL COMPOUND USED AS CBP/PA300 INHIBITOR, AND PHARMACEUTICAL COMPOSITION FOR PREVENTING OR TREATING CANCER, INFLAMMATORY DISORDERS, OR AUTOIMMUNE DISEASES COMPRISING SAME AS ACTIVE INGREDIENT” (dated 2026).

Sequences of proteins named here, by UniProt entry; tags and fusion partners are left off. Residues count along the entry.
UniProt Q92793, 1085-1192 limits assumed: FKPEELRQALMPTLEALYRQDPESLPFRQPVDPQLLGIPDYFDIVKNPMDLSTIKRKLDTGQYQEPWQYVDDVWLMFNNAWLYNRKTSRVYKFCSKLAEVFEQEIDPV

SMILES strings stand for the structures. Some results are limits rather than exact numbers.

For one test, the target named is BRD4 (BD1) protein (Homo sapiens, UniProt O60885). Nature of the test: BRD4 inhibitory activity, TR-FRET assay of BRD4 bromodomain with Ac-H4 peptide. The note with it: read-out: BRD4 (BD1) IC50, BRD4 (BD1) protein 7.5 nM, Ac-H4 peptide 15 nM, 2 hours at room temperature. A general note: Time-resolved FRET reads energy transfer from a long-lived donor to a nearby acceptor.

A further test addresses CBP BRD protein (Homo sapiens, UniProt Q92793). Nature of the test: CBP inhibitory activity, TR-FRET assay of CBP bromodomain with Ac-H4 peptide. Particulars: read-out: CBP BRD IC50, CBP BRD protein 7.5 nM, Ac-H4 peptide 85 nM, 2 hours at room temperature.

One may read the IC50 as the midpoint of a concentration-inhibition curve. As for `COc1ccccc1-c1ccc2c(c1)nc(-c1cncn1C)n2-c1ccc2c(c1)n(C)c(=O)n2C`, the half-inhibitory concentration (IC50) at BRD4 (BD1) protein is above 5 µM; on CBP BRD protein, 0.5 to 5 µM.

On to `CC(=O)Nc1cccc(-c2ccc3c(c2)nc(-c2cncn2C)n3-c2ccc3c(c2)n(C)c(=O)n3C)c1`, for which the values for the IC50 on BRD4 (BD1) protein and at CBP BRD protein were above 5 µM and below 0.5 µM, respectively.

As for `Cn1cncc1-c1nc2cc(-c3cnc(N)s3)ccc2n1-c1ccc2c(c1)n(C)c(=O)n2C`, the figures for the IC50 at BRD4 (BD1) protein and at CBP BRD protein were above 5 µM and 0.5 to 5 µM, respectively.

`CC(=O)Nc1ccc(-c2ccc3c(c2)nc(-c2cncn2C)n3-c2ccc3c(c2)n(C)c(=O)n3C)cc1F`: the IC50 is 0.5 to 5 µM at BRD4 (BD1) protein and below 0.5 µM on CBP BRD protein.

On to `CNS(=O)(=O)c1ccc2c(c1)nc(-c1cncn1C)n2-c1ccc2c(c1)n(C)c(=O)n2C`, for which the IC50 on BRD4 (BD1) protein and on CBP BRD protein was above 5 µM each time.

In the case of `CNC(=O)c1ccc(-c2ccc3c(c2)nc(-c2cccnc2C)n3-c2ccc3c(c2)n(C)c(=O)n3C)cc1F`, the IC50 is above 5 µM at BRD4 (BD1) protein and 0.5 to 5 µM at CBP BRD protein.

Consider `Cn1cncc1-c1nc2cc(-c3cnn(C)c3C#N)ccc2n1-c1ccc2c(c1)n(C)c(=O)n2C`, for which the IC50 on BRD4 (BD1) protein and on CBP BRD protein was above 5 µM each time.
